Read-outs that look alike come from different tables or passages of the source.
How the values were obtained:
[1] = target: T1, human GLP-1 receptor (Homo sapiens, UniProt P43220); experiment: cAMP response (HTRF) of HEK-293 cells stably expressing human GLP-1 receptor; type: cell-based; details: read-out: EC50 hGLP-1R
T1 construct: expressed in transfected cells; host or cells: HEK-293

Amino acid sequences for entries named in this document (tags omitted). Residues count along the entry.
UniProt P43220, 24-463: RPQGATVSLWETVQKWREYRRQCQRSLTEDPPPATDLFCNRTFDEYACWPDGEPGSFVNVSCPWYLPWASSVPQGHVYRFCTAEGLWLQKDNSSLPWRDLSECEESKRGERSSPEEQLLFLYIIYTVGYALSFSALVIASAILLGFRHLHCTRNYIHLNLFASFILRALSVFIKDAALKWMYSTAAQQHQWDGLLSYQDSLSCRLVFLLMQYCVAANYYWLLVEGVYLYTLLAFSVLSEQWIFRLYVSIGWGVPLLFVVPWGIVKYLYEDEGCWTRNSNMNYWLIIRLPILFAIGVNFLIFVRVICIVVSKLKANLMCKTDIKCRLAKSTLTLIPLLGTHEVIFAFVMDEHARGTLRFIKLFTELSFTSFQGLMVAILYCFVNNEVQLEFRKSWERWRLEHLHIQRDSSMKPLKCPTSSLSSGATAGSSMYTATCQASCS
UniProt P47871, 26-477: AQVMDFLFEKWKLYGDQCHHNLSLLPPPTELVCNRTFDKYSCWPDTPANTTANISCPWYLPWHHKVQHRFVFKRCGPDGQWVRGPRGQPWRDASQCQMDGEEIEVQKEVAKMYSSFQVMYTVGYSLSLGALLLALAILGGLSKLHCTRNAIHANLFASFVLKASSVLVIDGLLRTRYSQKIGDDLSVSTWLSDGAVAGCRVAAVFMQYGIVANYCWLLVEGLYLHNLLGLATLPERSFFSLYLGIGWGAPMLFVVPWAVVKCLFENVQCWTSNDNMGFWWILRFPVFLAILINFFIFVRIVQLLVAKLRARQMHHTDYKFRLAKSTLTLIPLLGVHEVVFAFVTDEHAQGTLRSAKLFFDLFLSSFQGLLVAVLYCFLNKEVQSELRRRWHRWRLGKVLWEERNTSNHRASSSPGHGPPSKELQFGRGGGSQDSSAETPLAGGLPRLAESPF

[2] = target: T2, human glucagon receptor (Homo sapiens, UniProt P47871); experiment: cAMP response (HTRF) of HEK-293 cells stably expressing human glucagon receptor; type: cell-based; details: read-out: EC50 hGlucagon-R
T2 construct: expressed in transfected cells; host or cells: HEK-293

[3] = Table 8, comparison testing of position 14

CC[C@H](C)[C@H](NC(=O)[C@H](Cc1ccccc1)NC(=O)[C@H](CC(=O)O)NC(=O)[C@H](CCC(N)=O)NC(=O)[C@H](C)NC(=O)[C@H](CCCNC(=N)N)NC(=O)[C@H](CCCNC(=N)N)NC(=O)[C@H](CO)NC(=O)[C@H](CC(=O)O)NC(=O)[C@H](CCSC)NC(=O)[C@H](CCC(N)=O)NC(=O)[C@H](CCCCN)NC(=O)[C@H](CO)NC(=O)[C@H](CC(C)C)NC(=O)[C@H](CC(=O)O)NC(=O)[C@H](CO)NC(=O)[C@@H](NC(=O)[C@H](Cc1ccccc1)NC(=O)[C@@H](NC(=O)CNC(=O)[C@H](CCC(N)=O)NC(=O)[C@@H](CO)NC(=O)[C@@H](N)Cc1c[nH]cn1)[C@@H](C)O)[C@@H](C)O)C(=O)N[C@@H](CCC(=O)O)C(=O)N[C@@H](Cc1c[nH]c2ccccc12)C(=O)N[C@@H](CC(C)C)C(=O)N[C@@H](CCCCN)C(=O)NC(C)(C)C(=O)NCC(=O)NCC(=O)N1CCC[C@H]1C(=O)N[C@@H](CO)C(=O)N[C@@H](CO)C(=O)NCC(=O)N[C@@H](C)C(=O)N1CCC[C@H]1C(=O)N1CCC[C@H]1C(=O)N1CCC[C@H]1C(=O)N[C@@H](CO)C(N)=O [compound 187]
EC50 [1, 3]: 0.152 nM
EC50 [2, 3]: 0.195 nM

CC[C@H](C)[C@H](NC(=O)[C@H](Cc1ccccc1)NC(=O)[C@H](CC(=O)O)NC(=O)[C@H](CCC(N)=O)NC(=O)[C@H](C)NC(=O)[C@H](CCCNC(=N)N)NC(=O)[C@H](CCCNC(=N)N)NC(=O)[C@H](CO)NC(=O)[C@H](CC(=O)O)NC(=O)[C@H](CCSC)NC(=O)[C@H](CCC(N)=O)NC(=O)[C@H](CCCCN)NC(=O)[C@H](CO)NC(=O)[C@H](CC(C)C)NC(=O)[C@H](CC(=O)O)NC(=O)[C@H](CO)NC(=O)[C@@H](NC(=O)[C@H](Cc1ccccc1)NC(=O)[C@@H](NC(=O)CNC(=O)[C@H](CCC(N)=O)NC(=O)[C@@H](CO)NC(=O)[C@@H](N)Cc1c[nH]cn1)[C@@H](C)O)[C@@H](C)O)C(=O)N[C@@H](CCC(=O)O)C(=O)N[C@@H](Cc1c[nH]c2ccccc12)C(=O)N[C@@H](CC(C)C)C(=O)N[C@@H](CCCCN)C(=O)N[C@@H](C)C(=O)NCC(=O)NCC(=O)N1CCC[C@H]1C(=O)N[C@@H](CO)C(=O)N[C@@H](CO)C(=O)NCC(=O)N[C@@H](C)C(=O)N1CCC[C@H]1C(=O)N1CCC[C@H]1C(=O)N1CCC[C@H]1C(=O)N[C@@H](CO)C(N)=O [compound 188]
EC50 [1, 3]: 0.0896 nM
EC50 [2, 3]: 0.186 nM

CC[C@H](C)[C@H](NC(=O)[C@H](Cc1ccccc1)NC(=O)[C@H](CC(=O)O)NC(=O)[C@H](CCC(N)=O)NC(=O)[C@H](C)NC(=O)[C@H](C)NC(=O)[C@H](CCCCN)NC(=O)[C@H](CO)NC(=O)[C@H](CCC(=O)O)NC(=O)[C@H](CCSC)NC(=O)[C@H](CCC(N)=O)NC(=O)[C@H](CCCCN)NC(=O)[C@H](CO)NC(=O)[C@H](CC(C)C)NC(=O)[C@H](CC(=O)O)NC(=O)[C@H](CO)NC(=O)[C@@H](NC(=O)[C@H](Cc1ccccc1)NC(=O)[C@@H](NC(=O)CNC(=O)[C@H](CCC(N)=O)NC(=O)[C@@H](CO)NC(=O)[C@@H](N)Cc1c[nH]cn1)[C@@H](C)O)[C@@H](C)O)C(=O)N[C@@H](CCC(=O)O)C(=O)N[C@@H](Cc1c[nH]c2ccccc12)C(=O)N[C@@H](CC(C)C)C(=O)N[C@@H](CCCCN)C(=O)N[C@@H](C)C(=O)NCC(=O)NCC(=O)N1CCC[C@H]1C(=O)N[C@@H](CO)C(=O)N[C@@H](CO)C(=O)NCC(=O)N[C@@H](C)C(=O)N1CCC[C@H]1C(=O)N1CCC[C@H]1C(=O)N1CCC[C@H]1C(=O)N[C@@H](CO)C(N)=O [compound 189]
EC50 [1, 3]: 0.0056 nM
EC50 [2, 3]: 1.68 nM

CC[C@H](C)[C@H](NC(=O)[C@H](Cc1ccccc1)NC(=O)[C@H](CC(=O)O)NC(=O)C(C)(C)NC(=O)[C@H](C)NC(=O)[C@H](CCCNC(=N)N)NC(=O)[C@H](CCCNC(=N)N)NC(=O)[C@H](CO)NC(=O)[C@H](CCC(=O)O)NC(=O)[C@H](CCSC)NC(=O)[C@H](CCC(N)=O)NC(=O)[C@H](CCCCN)NC(=O)[C@H](CO)NC(=O)[C@H](CC(C)C)NC(=O)[C@H](CC(=O)O)NC(=O)[C@H](CO)NC(=O)[C@@H](NC(=O)[C@H](Cc1ccccc1)NC(=O)[C@@H](NC(=O)CNC(=O)[C@H](CCC(N)=O)NC(=O)[C@@H](CO)NC(=O)[C@@H](N)Cc1c[nH]cn1)[C@@H](C)O)[C@@H](C)O)C(=O)N[C@@H](CCC(=O)O)C(=O)N[C@@H](Cc1c[nH]c2ccccc12)C(=O)N[C@@H](CC(C)C)C(=O)N[C@@H](CCCCN)C(=O)N[C@@H](C)C(=O)NCC(=O)NCC(=O)N1CCC[C@H]1C(=O)N[C@@H](CO)C(=O)N[C@@H](CO)C(=O)NCC(=O)N[C@@H](C)C(=O)N1CCC[C@H]1C(=O)N1CCC[C@H]1C(=O)N1CCC[C@H]1C(=O)N[C@@H](CO)C(N)=O [compound 190]
EC50 [1, 3]: 0.0213 nM
EC50 [2, 3]: 1.56 nM

CCCC[C@H](NC(=O)[C@H](CCC(N)=O)NC(=O)[C@H](CCCCN)NC(=O)[C@H](CO)NC(=O)[C@H](CC(C)C)NC(=O)[C@H](CC(=O)O)NC(=O)[C@H](CO)NC(=O)[C@@H](NC(=O)[C@H](Cc1ccccc1)NC(=O)[C@@H](NC(=O)CNC(=O)[C@H](CCC(N)=O)NC(=O)[C@@H](CO)NC(=O)[C@@H](N)Cc1c[nH]cn1)[C@@H](C)O)[C@@H](C)O)C(=O)N[C@@H](CC(=O)O)C(=O)N[C@@H](CO)C(=O)N[C@@H](CCCCN)C(=O)N[C@@H](C)C(=O)N[C@@H](C)C(=O)N[C@@H](CCC(N)=O)C(=O)N[C@@H](CC(=O)O)C(=O)N[C@@H](Cc1ccccc1)C(=O)N[C@H](C(=O)N[C@@H](CCC(=O)O)C(=O)N[C@@H](Cc1c[nH]c2ccccc12)C(=O)N[C@@H](CC(C)C)C(=O)N[C@@H](CCCCN)C(=O)N[C@@H](C)C(=O)NCC(=O)NCC(=O)N1CCC[C@H]1C(=O)N[C@@H](CO)C(=O)N[C@@H](CO)C(=O)NCC(=O)N[C@@H](C)C(=O)N1CCC[C@H]1C(=O)N1CCC[C@H]1C(=O)N1CCC[C@H]1C(=O)N[C@@H](CO)C(N)=O)[C@@H](C)CC [compound 192]
EC50 [1, 3]: 0.0068 nM
EC50 [2, 3]: 0.478 nM

CC[C@H](C)[C@H](NC(=O)[C@H](Cc1ccccc1)NC(=O)[C@H](CC(=O)O)NC(=O)[C@H](CCC(N)=O)NC(=O)[C@H](C)NC(=O)[C@H](CCCNC(=N)N)NC(=O)[C@H](CCCNC(=N)N)NC(=O)[C@H](CO)NC(=O)[C@H](CCC(=O)O)NC(=O)[C@H](CCCCNC(C)=O)NC(=O)[C@H](CCC(N)=O)NC(=O)[C@H](CCCCN)NC(=O)[C@H](CO)NC(=O)[C@H](CC(C)C)NC(=O)[C@H](CC(=O)O)NC(=O)[C@H](CO)NC(=O)[C@@H](NC(=O)[C@H](Cc1ccccc1)NC(=O)[C@@H](NC(=O)CNC(=O)[C@H](CCC(N)=O)NC(=O)[C@@H](CO)NC(=O)[C@@H](N)Cc1c[nH]cn1)[C@@H](C)O)[C@@H](C)O)C(=O)N[C@@H](CCC(=O)O)C(=O)N[C@@H](Cc1c[nH]c2ccccc12)C(=O)N[C@@H](CC(C)C)C(=O)N[C@@H](CCCCN)C(=O)N[C@@H](C)C(=O)NCC(=O)NCC(=O)N1CCC[C@H]1C(=O)N[C@@H](CO)C(=O)N[C@@H](CO)C(=O)NCC(=O)N[C@@H](C)C(=O)N1CCC[C@H]1C(=O)N1CCC[C@H]1C(=O)N1CCC[C@H]1C(=O)N[C@@H](CO)C(N)=O [compound 194]
EC50 [1, 3]: 0.159 nM
EC50 [2, 3]: 1.29 nM

CCCCCCCCCCCCCCCCCC(=O)N[C@@H](CCC(=O)NCCCC[C@H](NC(=O)[C@H](CCC(N)=O)NC(=O)[C@H](CCCCN)NC(=O)[C@H](CO)NC(=O)[C@H](CC(C)C)NC(=O)[C@H](CC(=O)O)NC(=O)[C@H](CO)NC(=O)[C@@H](NC(=O)[C@H](Cc1ccccc1)NC(=O)[C@@H](NC(=O)CNC(=O)[C@H](CCC(N)=O)NC(=O)[C@@H](CO)NC(=O)[C@@H](N)Cc1c[nH]cn1)[C@@H](C)O)[C@@H](C)O)C(=O)N[C@@H](CC(=O)O)C(=O)N[C@@H](CO)C(=O)N[C@@H](CCCCN)C(=O)N[C@@H](CCCNC(=N)N)C(=O)N[C@@H](C)C(=O)NC(C)(C)C(=O)N[C@@H](CC(=O)O)C(=O)N[C@@H](Cc1ccccc1)C(=O)N[C@H](C(=O)N[C@@H](CCC(=O)O)C(=O)N[C@@H](Cc1c[nH]c2ccccc12)C(=O)N[C@@H](CC(C)C)C(=O)N[C@@H](CCCCN)C(=O)N[C@@H](C)C(=O)NCC(=O)NCC(=O)N1CCC[C@H]1C(=O)N[C@@H](CO)C(=O)N[C@@H](CO)C(=O)NCC(=O)N[C@@H](C)C(=O)N1CCC[C@H]1C(=O)N1CCC[C@H]1C(=O)N1CCC[C@H]1C(=O)N[C@@H](CO)C(N)=O)[C@@H](C)CC)C(=O)O [compound 196]
EC50 ([1]; Table 5, cAMP, HEK-293): 0.0078 nM
EC50 ([2]; Table 5, cAMP, HEK-293): 0.0018 nM

CCCCCCCCCCCCCCCCCC(=O)N[C@@H](CCC(=O)NCCCC[C@H](NC(=O)[C@H](CCC(N)=O)NC(=O)[C@H](CCCCN)NC(=O)[C@H](CO)NC(=O)[C@H](CC(C)C)NC(=O)[C@H](CC(=O)O)NC(=O)[C@H](CO)NC(=O)[C@@H](NC(=O)[C@H](Cc1ccccc1)NC(=O)[C@@H](NC(=O)CNC(=O)[C@H](CCC(N)=O)NC(=O)C(C)(C)NC(=O)[C@@H](N)Cc1c[nH]cn1)[C@@H](C)O)[C@@H](C)O)C(=O)N[C@@H](CC(=O)O)C(=O)N[C@@H](CO)C(=O)N[C@@H](CCCNC(=N)N)C(=O)N[C@@H](CCCNC(=N)N)C(=O)N[C@@H](C)C(=O)N[C@@H](CCC(N)=O)C(=O)N[C@@H](CC(C)C)C(=O)N[C@@H](Cc1ccccc1)C(=O)N[C@H](C(=O)N[C@@H](CCC(=O)O)C(=O)N[C@@H](Cc1c[nH]c2ccccc12)C(=O)N[C@@H](CC(C)C)C(=O)N[C@@H](CCCCN)C(=O)N[C@@H](C)C(=O)NCC(=O)NCC(=O)N1CCC[C@H]1C(=O)N[C@@H](CO)C(=O)N[C@@H](CO)C(=O)NCC(=O)N[C@@H](C)C(=O)N1CCC[C@H]1C(=O)N1CCC[C@H]1C(=O)N1CCC[C@H]1C(=O)N[C@@H](CO)C(N)=O)[C@@H](C)CC)C(=O)O [compound 198]
EC50 ([1]; Table 5, cAMP, HEK-293): 0.0082 nM
EC50 ([2]; Table 5, cAMP, HEK-293): 0.0024 nM
